The target of this test is Transketolase (Homo sapiens, UniProt P29401). Nature of the test: Inhibition of apo-transketolase.

Chains of the proteins cited; added tags and fusions are not shown.
UniProt P29401, whole entry, looked up: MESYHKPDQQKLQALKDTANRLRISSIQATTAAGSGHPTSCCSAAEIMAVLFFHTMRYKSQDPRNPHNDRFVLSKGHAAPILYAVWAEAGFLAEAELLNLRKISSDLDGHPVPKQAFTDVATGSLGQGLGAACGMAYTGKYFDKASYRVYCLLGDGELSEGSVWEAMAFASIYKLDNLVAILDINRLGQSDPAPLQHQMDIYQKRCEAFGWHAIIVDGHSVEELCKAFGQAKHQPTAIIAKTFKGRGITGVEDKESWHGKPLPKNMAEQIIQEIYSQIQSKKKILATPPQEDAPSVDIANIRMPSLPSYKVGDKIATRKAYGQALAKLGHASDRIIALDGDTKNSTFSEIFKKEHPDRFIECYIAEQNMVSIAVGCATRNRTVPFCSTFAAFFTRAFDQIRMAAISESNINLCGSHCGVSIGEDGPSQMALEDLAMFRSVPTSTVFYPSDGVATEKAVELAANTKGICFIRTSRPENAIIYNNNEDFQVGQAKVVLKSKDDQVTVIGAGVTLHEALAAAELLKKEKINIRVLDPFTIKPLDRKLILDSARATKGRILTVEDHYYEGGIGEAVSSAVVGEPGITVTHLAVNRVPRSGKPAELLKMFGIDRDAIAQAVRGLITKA

We go through one molecule from ChEMBL document CHEMBL1143161, “Non-charged thiamine analogs as inhibitors of enzyme transketolase” (Bioorg Med Chem Lett, 2008).

As for `Cc1ncc(C[n+]2csc(CCOP(C)(=O)OP(=O)(O)O)c2C)c(N)n1` (stereo unspecified), the Kd is 170 nM.
